In US20260007760A1, “CAMPTOTHECIN DERIVATIVES THAT BIND TO DDX5 PROTEIN AND PRODRUGS THEREOF” (priority 2022, published 2026):
Like-named read-outs stand apart in the source and are kept apart here.

System: A549 cell line (overexpresses ABCG2)

Compound: CC[C@@]1(O)C(=O)OCc2c1cc1n(c2=O)Cc2c-1nc1cc(F)c(C)c3c1c2[C@@H](NC(=O)CO)CC3 [Dxd, reference compound]
- Cell killing efficacy (IC50): increased IC50 values

Compound: CC[C@@]1(O)C(=O)OCc2c1cc1n(c2=O)Cc2c-1nc1cc3c(c4c1c2[C@@H](NC(=O)[C@@H](C)O)CC4)OCO3 [PBX-7016]
- Cell killing efficacy (IC50) (A549 (overexpresses ABCG2), 3-day incubation): still maintain strong efficacy
